Source: ChEMBL document CHEMBL4334547 (ACS Med Chem Lett, 2020)

Experiment: Inhibition of mouse derived homozygous Tg0N4R P301S mutant tau-induced human ON4R tau aggregation harboring P301S mutant transfected in HEK293 cells preincubated for 2 hrs followed by compound addition and measured after 3 hrs by YFP-based fluorescence assay

Row | Compound | EC50 [nM]
1 | O=C(CC1CCCO1)N1CCN(c2cncc3ccccc23)CC1 (centres undefined) | > 10000
2 | O=C(Cc1coc(C2CC2)n1)N1CCN(c2cncc3ccccc23)CC1 | 120
3 | Cn1nccc1CC(=O)N1CCN(c2cncc3ccccc23)CC1 | > 10000
4 | Cn1ccc(CC(=O)N2CCN(c3cncc4ccccc34)CC2)n1 | 520
5 | Cn1ncc2ccc(N3CCN(c4cncc5ccc(C(F)F)cc45)CC3)cc21 | 98
6 | COc1ccc2cncc(N3CCN(c4ccc5cnn(C)c5c4)CC3)c2c1 | > 10000
7 | Cn1cc2ccc(N3CCN(c4cncc5ccccc45)CC3)nc2n1 | > 10000
8 | Cn1ncc2ccc(N3CCN(c4cncc5ccc(C#N)cc45)CC3)cc21 | 35
9 | Cc1nc2ccc(N3CCN(c4cncc5ccccc45)CC3)cc2o1 | > 10000
10 | CC(=O)c1ccc2cncc(N3CCN(c4ccc5cnn(C)c5c4)CC3)c2c1 | 15
11 | Cn1ncc2ccc(N3CCN(c4cncc5ccccc45)CC3)cc21 | 120
12 | CC(C)n1ccc(CC(=O)N2CCN(c3cncc4ccccc34)CC2)n1 | 170
13 | CN(CC(=O)N1CCN(c2cccc3ccccc23)CC1)C(=O)c1cccs1 | > 10000
14 | Cn1cc2ccc(N3CCN(c4cncc5ccccc45)CC3)cc2n1 | 22
15 | CN(C)C(=O)Cn1cc(-c2ccc(-c3cncc4ccccc34)cc2)cn1 | 5
16 | CN(CC(=O)N1CCN(c2cncc3ccccc23)CC1)C(=O)c1cccs1 | 390
17 | Cn1cc2ccc(N3CCN(c4cncc5ccccc45)CC3)c(F)c2n1 | > 10000
18 | Cc1cc(CC(=O)N2CCN(c3cncc4ccccc34)CC2)on1 | 10000
19 | Cc1nc2cc(N3CCN(c4cncc5ccccc45)CC3)ccc2o1 | > 10000
20 | Cc1cn2ccc(N3CCN(c4cncc5ccccc45)CC3)cc2n1 | 330
21 | O=C(Cc1nc(C(F)(F)F)cs1)N1CCN(c2cncc3ccccc23)CC1 | 400
22 | CC1(C(=O)N2CCN(c3cncc4ccccc34)CC2)COC1 | 1420
23 | CNC(=O)c1ccc2cncc(-c3ccc4c(c3)CS(=O)(=O)N4C)c2n1 | 9
24 | CC(C)(C)c1nc(CC(=O)N2CCN(c3cncc4ccccc34)CC2)co1 | 680
25 | CC(C)(C)C(=O)N1CCN(c2cncc3ccccc23)CC1 | 910
26 | Cc1csc(CC(=O)N2CCN(c3cncc4ccccc34)CC2)n1 | 120
27 | O=C(C1CCOC1)N1CCN(c2cncc3ccccc23)CC1 (centres undefined) | 590
28 | Cc1nc2cc(N3CCN(c4cncc5ccccc45)CC3)ccn2n1 | 1100
29 | Cc1nc(CC(=O)N2CCN(c3cncc4ccccc34)CC2)co1 | 280
